# Results as given in PubChem BioAssay AID623877 (Johns Hopkins Ion Channel Center, 2012).
# Sequences of proteins named here, by UniProt entry; tags and fusion partners are left off.
# UniProt Q8BHY3, whole entry: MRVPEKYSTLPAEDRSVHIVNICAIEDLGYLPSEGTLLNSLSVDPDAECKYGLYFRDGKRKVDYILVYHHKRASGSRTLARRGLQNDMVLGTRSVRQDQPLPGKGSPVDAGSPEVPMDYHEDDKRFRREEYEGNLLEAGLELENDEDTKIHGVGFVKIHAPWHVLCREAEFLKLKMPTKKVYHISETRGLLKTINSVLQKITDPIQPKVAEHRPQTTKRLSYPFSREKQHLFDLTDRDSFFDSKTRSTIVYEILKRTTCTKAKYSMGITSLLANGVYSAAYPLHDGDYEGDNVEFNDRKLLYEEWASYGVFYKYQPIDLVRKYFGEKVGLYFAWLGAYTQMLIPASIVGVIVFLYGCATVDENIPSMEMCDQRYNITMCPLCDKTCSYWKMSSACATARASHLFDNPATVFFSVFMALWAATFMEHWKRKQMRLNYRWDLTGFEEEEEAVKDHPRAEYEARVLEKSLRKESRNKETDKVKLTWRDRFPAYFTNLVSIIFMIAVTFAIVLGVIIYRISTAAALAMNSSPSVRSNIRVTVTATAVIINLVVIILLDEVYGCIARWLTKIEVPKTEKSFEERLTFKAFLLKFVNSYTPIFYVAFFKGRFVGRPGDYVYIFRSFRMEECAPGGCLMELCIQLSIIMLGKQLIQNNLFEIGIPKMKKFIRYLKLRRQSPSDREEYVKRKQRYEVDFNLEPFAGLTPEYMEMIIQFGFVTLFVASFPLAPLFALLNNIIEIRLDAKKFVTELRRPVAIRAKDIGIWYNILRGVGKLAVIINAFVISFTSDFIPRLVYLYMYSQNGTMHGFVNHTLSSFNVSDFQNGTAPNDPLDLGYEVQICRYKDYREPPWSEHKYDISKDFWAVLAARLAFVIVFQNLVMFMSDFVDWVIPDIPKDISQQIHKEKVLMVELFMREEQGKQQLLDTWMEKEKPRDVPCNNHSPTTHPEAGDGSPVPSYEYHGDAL
# The list shows a part of the results, in another mix than the full data. Some of these compounds have results that are not shown, active ones among them. Calls of active or inactive are those of the source.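 Rule for the calls: active = fluorescence-ratio B-score plate-corrected deviation score at least 3 library SD below zero, with starting fluorescence score within 5 deviations; inactive = the rest.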
# Target: Anoctamin-1 (Mus musculus) (UniProt Q8BHY3)
# Experiment: TMEM16A chloride channel activators or potentiators, primary screen, cell-based, HTS (AID 623877)
# Details: HEK293 TMEM16A/YFP-H148Q/I152L, iodide quench fluorescence; at 10 µM
row,SMILES,outcome
1,CN(C)C1(CNC(=O)c2ccc(Br)cc2)CCCCC1,inactive
2,COc1cc(C(=O)NCC2(N(C)C)CCCCC2)c([N+](=O)[O-])cc1OC,inactive
3,COc1ccc(Cl)cc1C(=O)NCC1(N(C)C)CCCCC1,inactive
4,COc1cccc(C(=O)NCC2(N3CCCCC3)CCCCC2)c1,inactive
5,O=C(NCC1(N2CCCCC2)CCCCC1)c1cccc(Cl)c1,inactive
6,O=C(OC1CN2CCC1CC2)C(CO)(c1ccccc1)c1ccccc1 (stereo not given),inactive
7,COc1ccc(Br)c(C(=O)NCC2(N3CCCCC3)CCCCC2)c1,inactive
8,CN(C)c1cccc(C(=O)NCC2(N(C)C)CCCCC2)c1,inactive
9,O=C(OCCN1CCCC1)C(O)(c1ccccc1)c1ccccc1,inactive
10,CC(C)Oc1ccc(C(=O)NCC2(N(C)C)CCCCC2)cc1,inactive
11,O=C(NCC1(N2CCCCC2)CCCCC1)c1cc([N+](=O)[O-])ccc1Cl,inactive
12,CN1[C@@H]2CC[C@H]1CC(OC(=O)C(O)(c1ccccc1)c1ccccc1)C2 (stereo not given in full),inactive
13,CC(C)N1C(=O)CC2(CCN(CCOC(=O)C(O)(c3ccccc3)c3ccccc3)CC2)C1=O,inactive
14,COc1cc(SC)ccc1C(=O)NCC1(N(C)C)CCCCC1,inactive
15,CCN(CC)CC(C)C(C)OC(=O)C(O)(c1ccccc1)c1ccccc1 (stereo not given),inactive
16,Cc1ccc(C(=O)NCC2(N3CCCCC3)CCCCC2)cc1,inactive
17,CN(C)c1ccc(C(=O)NCC2(N(C)C)CCCCC2)cc1,inactive
18,CN(C)C1CCCC1OC(=O)C(O)(c1ccccc1)c1ccccc1 (stereo not given),inactive
19,Cc1ccccc1C(=O)NCC1(N2CCCCC2)CCCCC1,inactive
20,O=C(NCC1(N2CCCCC2)CCCCC1)c1cc(F)c(F)cc1Cl,inactive
21,C=CCN1CCN(CCOC(=O)C(O)(c2ccccc2)c2ccccc2)CC1,inactive
22,O=C(NCC1(N2CCCCC2)CCCCC1)c1cccc(Br)c1,inactive
23,CCN1CCCC(OC(=O)C2(O)c3ccccc3C=Cc3ccccc32)C1 (stereo not given),inactive
24,Cc1cc(C(=O)NCC2(N3CCCCC3)CCCCC2)ccc1[N+](=O)[O-],inactive
25,COc1ccc(C(=O)NCC2(N(C)C)CCCCC2)cc1,inactive
